# How the values were obtained:
# [1] = test system: collagen-induced arthritis mouse model; assay: arthritis progression index in collagen-induced arthritis (CIA) mouse model
# [2] = evaluation of toxicity: mortality and change in body weight after intraperitoneal administration
compound,measurement,setting,value
N=C(N)NCCC[C@H](NC(=O)CNC(=O)[C@H](CC(=O)O)NC(=O)[C@@H](N)CCCNC(=N)N)C(=O)N[C@@H](CC(=O)O)C(=O)NCC(=O)O,arthritis progression index versus control mouse,"[1]; at all the concentrations (0.1 µmole, 1 µmole, 10 µmole), Table 3, FIG. 4",significantly decreased
same,swelling and redness symptoms around the ankle joint,"[1]; visual check, FIG. 3, 1 µmole intraperitoneally three times a week, compared with the control",remarkably mitigated
same,mortality of the mouse,"[2]; 0.1 µmole, 1 µmole or 10 µmole intraperitoneally",not observed
same,difference in body weight from that of the control,"[2]; at all the concentrations (0.1 µmole, 1 µmole, 10 µmole)",did not have a large difference

# Source: patent publication EP3428179B1, “PEPTIDE FOR PREVENTING OR TREATING INFLAMMATORY DISEASES AND USE THEREOF” (dated 2026)
